Bioassay records: PubChem BioAssay, Broad Institute
Most compounds without a hit are left out; they make up all but 2.2% or so of the library.
ERp5 inh: blocks human ERp5 reductase activity on insulin. Q15084. 350,000 compounds, 0.05% hits. ERp5 insulin aggregation, absorbance 650 nm, 90 min. inhibition, % at 9.99 µM;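 active = mean replicate inhibition above about 25%, with every replicate also reaching it, limit read from the data, passing the limit was not always enough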
S100A4 inh HTS: inhibitors of human S100A4 binding to myosin IIA peptide; P26447; S100A4/TAMRA-MyoIIA peptide fluorescence polarization; AID 652163; 360,000 compounds, 0.14% hits; inhibition, % at 10.7 µM;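 active = mean inhibition of at least 70% across replicates, with every replicate also reaching that level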
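Material: human S100A4 monomer with TAMRA-labelled myosin IIA peptide; buffer or medium: HEPES pH 7.2 with CaCl2, KCl, NaCl, DTT, Triton; compound dosing: one concentration per compound; schedule: 5 min incubation before reading; benchmarks: neutral control DMSO, positive control TFP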
SIRT5 block: blocks human SIRT5 desuccinylation of peptide. Q9NXA8. 330,000 compounds, 1.1% hits. Purified SirT5, succinyl-peptide AMC, trypsin-coupled fluorescence. inhibition, % at 15 µM. AID 652115; in the data active = inhibition above about 15%
PDI inh: blocks human protein disulfide isomerase activity; P07237; AID 588391; 350,000 compounds, 0.052% hits; inhibition, % at 10 µM; PDI insulin aggregation turbidity, A650, 90 min;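 active = mean inhibition across replicates of 30% or more, whatever share of single replicates reach that level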
FGF22 binding: shifts melting point of recombinant human FGF22. activity (Tm shift, normalised), % at 9.99 µM. Q9HCT0. AID 651658. 340,000 compounds, 1.5% hits. recombinant FGF22 thermal shift, SYPRO orange fluorescence; percent of sucrose octasulfate shift, DMSO zero;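 active = mean Tm shift, scaled 0 neutral to 100 positive control, at about 1.3% or above, every replicate too, limit read from the data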
Yeast UUG start-1: yeast start codon fidelity modulation; activity score, % at 18.7 µM; actives 0.13% (n = 350,000); S. cerevisiae UUG-firefly luciferase reporter, luminescence/redox ratio; AID 602363;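 active means replicate mean at a twofold rise or more, about +100% in these data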;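 further: firefly luciferase made from a UUG start codon reports start codon fidelity; reporter light over untreated wells divided by growth signal over untreated wells; some hits fall short of that in this replicate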
Yeast UUG start-2: modulators of start codon recognition fidelity in yeast; shares compounds with Yeast UUG start-1; S. cerevisiae UUG-start firefly luciferase, luminescence, 4 h; 100% means double the DMSO signal; activation, % at 38 µM; 540 tested, under 10 active; AID 652061;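 active = signal increase whose fitted curve reaches an absolute level of 40 at a concentration under 10 µM; inactive = activity opposite to the expected increase, or the rest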
* hit, by the source's call.

CN(C)C(=O)C[C@@H]1C[C@H]2c3cc(NC(=O)NC4CCCC4)ccc3O[C@H]2[C@H](CO)O1 was read as ERp5 inh -2, S100A4 inh HTS 3, SIRT5 block 1, FGF22 binding 0 and Yeast UUG start-1 -5.
CC(C)CNC(=O)c1cccc(NC(=O)Cc2ccc(Cl)cc2)c1 was read as PDI inh -6, Yeast UUG start-1 249* and Yeast UUG start-2 -3.
For CC(C)CNC(=O)c1cccc(NC(=O)CSc2ccccc2)c1 the results were PDI inh 3.
C[C@H](CO)N1C[C@H](C)[C@@H](CN(C)C(=O)Nc2ccc3c(c2)OCO3)Oc2ccc(NC(=O)Cc3cn(C)c4ccccc34)cc2C1=O was read as ERp5 inh -3, S100A4 inh HTS 3, SIRT5 block -2 and FGF22 binding 1.
COc1c(C)cccc1C(=O)NCc1ccc2c(c1)OCO2 was read as ERp5 inh 3, S100A4 inh HTS -1, SIRT5 block 3, PDI inh -5, FGF22 binding 0, Yeast UUG start-1 active and Yeast UUG start-2 -10.
Screening C[C@@H]1CN([C@H](C)CO)C(=O)c2cc(C#Cc3cccnc3)cnc2O[C@H]1CN(C)C returned ERp5 inh -1, S100A4 inh HTS 5, SIRT5 block -5, FGF22 binding 0 and Yeast UUG start-1 -21.
`C[C@H](CO)N1C[C@H](C)[C@@H](CN(C)CC2CCCCC2)OCCCC[C@H](C)Oc2ccc(NS(=O)(=O)c3cn(C)cn3)cc2C1=O` gave ERp5 inh -3, S100A4 inh HTS 7, SIRT5 block -1, FGF22 binding 0, Yeast UUG start-1 136* and Yeast UUG start-2 inactive.
For Cc1noc(C)c1NC(=O)N(C)C[C@@H]1OCCCC[C@H](C)Oc2ccc(NS(=O)(=O)c3ccc(F)cc3)cc2C(=O)N([C@@H](C)CO)C[C@@H]1C the results were ERp5 inh -3, S100A4 inh HTS -4, SIRT5 block 3, FGF22 binding -1, Yeast UUG start-1 183* and Yeast UUG start-2 inactive.
Screening C[C@@H]1CCCCO[C@H](CN(C)C(=O)c2ccccc2)[C@@H](C)CN([C@@H](C)CO)C(=O)c2cc(NC(=O)CCC(F)(F)F)ccc2O1 returned ERp5 inh -9, S100A4 inh HTS -2, SIRT5 block -2, FGF22 binding 0 and Yeast UUG start-1 7.
For CC(C)NC(=O)Nc1cccc2c1O[C@H](CN(C)Cc1ccc(C(=O)O)cc1)[C@H](C)CN([C@H](C)CO)C2=O the results were ERp5 inh 9, S100A4 inh HTS 7, SIRT5 block -6, FGF22 binding 0, Yeast UUG start-1 132* and Yeast UUG start-2 inactive.
Screening C[C@H]1CCCCO[C@H](CN(C)C(=O)c2ccccc2)[C@@H](C)CN([C@@H](C)CO)C(=O)c2cc(NC(=O)CCC(F)(F)F)ccc2O1 returned ERp5 inh -3, S100A4 inh HTS 32, SIRT5 block -2, FGF22 binding 0, Yeast UUG start-1 128* and Yeast UUG start-2 inactive.
`CCC(=O)N[C@@H]1C=C[C@H](CC(=O)NCc2cc(F)cc(F)c2)O[C@@H]1CO` gave ERp5 inh -3, S100A4 inh HTS -9, SIRT5 block -1, FGF22 binding 0 and Yeast UUG start-1 10.
`CO[C@H]1CN(C)C(=O)c2ccc(NC(=O)c3cnccn3)cc2OC[C@H](C)N(CC2CC2)C[C@H]1C` gave S100A4 inh HTS 0, SIRT5 block 0 and FGF22 binding 0.
Screening C[C@@H]1CN([C@@H](C)CO)C(=O)c2cc(NS(=O)(=O)c3ccc(F)cc3)ccc2O[C@@H](C)CCCCO[C@H]1CN(C)Cc1ccccc1 returned ERp5 inh 0, S100A4 inh HTS 1, SIRT5 block 0 and Yeast UUG start-1 23.
`C[C@H](CO)N1C[C@H](C)[C@H](CN(C)Cc2ccccc2)OCCCC[C@H](C)Oc2ccc(NS(=O)(=O)c3ccc(F)cc3)cc2C1=O` gave ERp5 inh 1, S100A4 inh HTS 8, SIRT5 block 3, Yeast UUG start-1 235* and Yeast UUG start-2 inactive.
Screening C[C@H](CO)N1C[C@H](C)[C@H](CN(C)Cc2ccc(C(F)(F)F)cc2)OCCCC[C@H](C)Oc2ccc(NC(=O)Nc3ccc(F)cc3)cc2C1=O returned ERp5 inh 8, S100A4 inh HTS -1, SIRT5 block 4, FGF22 binding 0, Yeast UUG start-1 120* and Yeast UUG start-2 inactive.
For Cc1ccccc1-c1ccc([C@H]2[C@H]3CN(C(=O)Nc4ccc(F)cc4)CC(=O)N3[C@H]2CO)cc1 the results were ERp5 inh 4, S100A4 inh HTS -9 and SIRT5 block 0.
NCCCC[C@@H]1NC(=O)c2cc([N+](=O)[O-])cc(I)c2SC[C@@H](C(N)=O)NC(=O)[C@H](Cc2ccc(O)cc2)NC1=O was read as PDI inh -1 and Yeast UUG start-1 9.
`NCCCC[C@@H]1NC(=O)[C@H](CCC(=O)O)NC(=O)c2cc([N+](=O)[O-])cc(I)c2SC[C@@H](C(=O)NCC(N)=O)NC1=O` gave ERp5 inh -4, S100A4 inh HTS 5, PDI inh -2, FGF22 binding 0, Yeast UUG start-1 119* and Yeast UUG start-2 10.
Screening O=C(N[C@H]1CC[C@@H](CCNS(=O)(=O)c2ccc(Cl)cc2)O[C@@H]1CO)c1cccnc1 returned ERp5 inh 1, S100A4 inh HTS 8, SIRT5 block -1, FGF22 binding 0 and Yeast UUG start-1 -4.
`C[C@@H]1CCCCO[C@H](CN(C)CC2CCCCC2)[C@H](C)CN([C@H](C)CO)C(=O)c2cc(NS(=O)(=O)c3ccccc3)ccc2O1` gave ERp5 inh -1, S100A4 inh HTS 1, SIRT5 block 0, FGF22 binding 0 and Yeast UUG start-1 46.
O=C(NCCN1CCOCC1)C(=O)NCC1OCCCN1S(=O)(=O)c1cc(F)ccc1F (stereo not drawn) was read as ERp5 inh 1, S100A4 inh HTS -15, SIRT5 block -2, PDI inh -4, FGF22 binding 0, Yeast UUG start-1 172* and Yeast UUG start-2 -2.
Screening O=C(NCCCN1CCOCC1)C(=O)NCC1OCCN1S(=O)(=O)c1cc(F)ccc1F (stereo not drawn) returned ERp5 inh -6, S100A4 inh HTS 2, SIRT5 block 6, PDI inh -3, FGF22 binding 0 and Yeast UUG start-1 -9.
C[C@@H]1CN([C@H](C)CO)S(=O)(=O)c2ccc(-c3cccnc3)cc2O[C@@H]1CN(C)C(=O)C1CCC1 was read as ERp5 inh 3, S100A4 inh HTS 1, SIRT5 block -1, FGF22 binding 0 and Yeast UUG start-1 -12.

Retrieved by compound from the list above, 3 records:
`C[C@@H]1CCCCO[C@H](CN(C)CC2CCCCC2)[C@H](C)CN([C@H](C)CO)C(=O)c2cc(NS(=O)(=O)c3ccccc3)ccc2O1` gave ERp5 inh -1, S100A4 inh HTS 1, SIRT5 block 0, FGF22 binding 0 and Yeast UUG start-1 46.
C[C@@H]1CN([C@H](C)CO)S(=O)(=O)c2ccc(-c3cccnc3)cc2O[C@@H]1CN(C)C(=O)C1CCC1 was read as ERp5 inh 3, S100A4 inh HTS 1, SIRT5 block -1, FGF22 binding 0 and Yeast UUG start-1 -12.
Screening O=C(NCCCN1CCOCC1)C(=O)NCC1OCCN1S(=O)(=O)c1cc(F)ccc1F (stereo not drawn) returned ERp5 inh -6, S100A4 inh HTS 2, SIRT5 block 6, PDI inh -3, FGF22 binding 0 and Yeast UUG start-1 -9.
